In PubChem BioAssay AID485272 (The Scripps Research Institute Molecular Screening Center, 2010) one finds inhibition data, which are given here for two compounds.

Chains of the proteins cited; added tags and fusions are not shown.
UniProt Q9UM07, whole entry: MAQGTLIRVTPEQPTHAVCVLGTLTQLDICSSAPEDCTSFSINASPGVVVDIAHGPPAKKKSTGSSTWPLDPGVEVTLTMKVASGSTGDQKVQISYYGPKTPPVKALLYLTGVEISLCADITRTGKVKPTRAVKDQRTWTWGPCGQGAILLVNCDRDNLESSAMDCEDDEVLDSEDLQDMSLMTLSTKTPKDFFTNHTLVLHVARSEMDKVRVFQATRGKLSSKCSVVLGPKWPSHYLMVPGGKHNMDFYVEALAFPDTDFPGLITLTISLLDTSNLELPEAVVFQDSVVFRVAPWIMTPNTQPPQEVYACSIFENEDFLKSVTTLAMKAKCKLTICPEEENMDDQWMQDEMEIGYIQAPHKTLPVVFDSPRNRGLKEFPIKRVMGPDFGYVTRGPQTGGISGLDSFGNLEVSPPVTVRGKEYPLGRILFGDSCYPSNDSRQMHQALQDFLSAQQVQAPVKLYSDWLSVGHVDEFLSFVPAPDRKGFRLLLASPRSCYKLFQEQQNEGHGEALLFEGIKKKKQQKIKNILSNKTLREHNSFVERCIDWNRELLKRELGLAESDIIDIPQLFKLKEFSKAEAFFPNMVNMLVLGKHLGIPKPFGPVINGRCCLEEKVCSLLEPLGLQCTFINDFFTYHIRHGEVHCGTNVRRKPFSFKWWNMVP

Structures are written as SMILES. This is a selection; strong and weak results do not stand in their true shares. Active and inactive are the calls of the source.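 How the source made its calls: active means percent inhibition above a cutoff equal to the mean of all tested compounds plus 3 SD (cut at about 15% in these data); inactive means the rest.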

The experiment concerns the target Protein-arginine deiminase type-4 (Homo sapiens) (UniProt Q9UM07). Briefly: human PAD4 inhibitors, primary screen, biochemical, fluorescence polarization, 1536-well format (AID 485272).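 Further: 0% = PAD4 with RCA probe and DMSO and 100% = probe without PAD4.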 Particulars: recombinant PAD4, RCA probe fluorescence polarization; at 6.36 µM; stronger effect = higher value. For orientation: Polarisation of emitted light reports the rotation of a fluorescent probe.
In general, inhibition refers to the change of the read-out against control, counted positive when it falls. With `CCC(=O)N(c1ccccc1)C1(COC)CCN(CCc2cccs2)CC1`, the inhibition is inactive: -2.32%.

With `CCC(=O)N(c1ccccc1)C1(COC)CCN(CCn2nnn(CC)c2=O)CC1`, the inhibition is inactive: -1.03%.
